We go through 59 compounds from PubChem BioAssay AID488922 (Johns Hopkins Ion Channel Center, 2010).

Amino acid sequences for entries named in this document (tags omitted).
UniProt Q9NPC2, whole entry: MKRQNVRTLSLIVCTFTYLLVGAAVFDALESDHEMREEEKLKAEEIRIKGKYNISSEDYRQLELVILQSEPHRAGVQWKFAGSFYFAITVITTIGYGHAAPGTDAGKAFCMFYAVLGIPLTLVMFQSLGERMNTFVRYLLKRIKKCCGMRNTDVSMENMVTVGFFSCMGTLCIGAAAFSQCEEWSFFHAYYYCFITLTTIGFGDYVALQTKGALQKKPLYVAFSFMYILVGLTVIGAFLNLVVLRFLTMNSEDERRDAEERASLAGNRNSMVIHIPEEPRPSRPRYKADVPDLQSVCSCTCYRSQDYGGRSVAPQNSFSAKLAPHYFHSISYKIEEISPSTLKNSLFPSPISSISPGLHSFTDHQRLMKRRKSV

Only a part is listed here, and it is no random draw. Activity calls are given as the source filed them.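 Rule for the calls: active = ratio B-score over 3 SD below the library mean, with starting fluorescence within 5 SD of its mean; inactive = the rest, inconclusive results apart.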

The assay concerns the target Potassium channel subfamily K member 9 (Homo sapiens) (UniProt Q9NPC2). The experiment in a line: KCNK9 potassium channel inhibitors, primary screen, HEK293 cells, thallium flux (AID 488922).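 For B-score: negative B-score means less thallium flux so channel inhibition.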 The following applies: HEK293 KCNK9, FluxOR thallium flux fluorescence, at 10 µM; active compounds read low.
On to `N#Cc1ccc(C(=O)NCC2(N3CCCCC3)CCCCC2)cc1`, for which the compound was called inactive.
`CC(C)(C)OC(=O)N1CCC(N(C(=O)c2ccccc2)c2ccc(Cl)cc2)CC1`: the B-score is active: -23.1.
`CN(C)C1(CNC(=O)c2cccc(C#N)c2)CCCCC1`: the outcome was inactive.
`c1ccc(CN2CCC(Nc3ccccc3)CC2)cc1`: the compound was classed as inactive.
Turning to `CCCN1CCC(Nc2cc(OC)cc(OC)c2)CC1`, the call was inactive.
Same read-out and setting: the entry for `COc1ccc(C(=O)NCC2(N3CCOCC3)CCCCC2)cc1OC` is “inactive”; for `O=C(OC1CN2CCC1CC2)C1c2ccccc2C=Cc2ccccc21` (centres undefined) it is “inactive”.
Consider `CCc1cc(C(=O)NCC2(N3CCCCC3)CCCCC2)sc1C`, for which the compound was classed as inactive.
On the same count and under the same terms, next, `CCOC(=O)N1CCC(Nc2ccc(C)cc2)CC1`: “inactive”; `N/C(=N\O)c1c(N)no[n+]1[O-]`: “inactive”; `CC(C)(C)OC(=O)N1CCC(Nc2ccccc2)CC1`: “inactive”.
For the compound `O=C(O)C1(Nc2ccccc2)CCN(Cc2ccccc2)CC1`, the result was inactive.
The same measure, in the same setting: the entry for `CCCOc1ccc(C(=O)NCC2(N(C)C)CCCCC2)cc1` is “inactive”.
On the same count and under the same terms, next, `CCOc1ncccc1C(=O)NCC1(N2CCOCC2)CCCCC1`: “inactive”; `CN1CCC(Nc2ccc(F)c(Cl)c2)CC1`: “inactive”.
As for `CN1CCC(Nc2ccc(Cl)cc2)CC1`, the compound was classed as inactive.
The same measure, in the same setting: the entry for `CCCOc1ccc(C)cc1CN(CCCl)CCCl` is “inactive”; for `COc1cc(OC)cc(C(=O)NCC2(N3CCOCC3)CCCCC2)c1` it is “inactive”.
Consider `COc1cccc(C(=O)N(c2cc(C)cc(C)c2)C2CCN(C(=O)OC(C)(C)C)CC2)c1`, for which the B-score is active: -15.8.
In the case of `CCC(CO)(C(=O)OC1CN2CCC1CC2)c1ccccc1` (centres undefined), the outcome was inactive.
Same read-out and setting: the entry for `Cc1ccc(C(=O)NCC2(N3CCCCC3)CCCCC2)o1` is “inactive”.
With `Fc1ccccc1NC1CCN(Cc2ccccc2)CC1`, the compound was classed as inactive.
Turning to `COc1cc(OC)cc(C(=O)NCC2(N3CCCCC3)CCCCC2)c1`, the compound was classed as inactive.
On to `CN(C)c1ccc(C(=O)NCC2(N3CCCCC3)CCCCC2)cc1`, for which the outcome was inactive.
Same read-out and setting: the entry for `CCN1CCC(Nc2cccc(F)c2)CC1` is “inactive”; for `O=C(NCC1(N2CCCCC2)CCCCC1)c1ccc(F)cc1` it is “inactive”.
The same measure, in the same setting: the entry for `COc1ccc(NC2CCN(CCc3ccccc3)CC2)c(OC)c1` is “inactive”.
On to `CCOC(=O)N1CCC(Nc2ccc(F)cc2)CC1`, for which the outcome was inactive.
The same measure, in the same setting: next, `CCOc1ccc(C)cc1CN(CCCl)CCCl`: “inactive”.
Still for that read-out and setting: the entry for `COc1cc(C(=O)NCC2(N(C)C)CCCCC2)ccc1OC(F)F` is “inactive”; for `CCOC(=O)N1CCC(Nc2cccc(C)c2)CC1` it is “inactive”; for `Cc1ccc(OCC(C)C)c(CN(CCCl)CCCl)c1` it is “inactive”.
Consider `CSc1ccccc1C(=O)NCC1(N2CCCCC2)CCCCC1`, for which the outcome was inactive.
For `COc1ccc(C(=O)NCC2(N3CCCCC3)CCCCC2)cc1`, the outcome was inactive.
The same measure, in the same setting: next, `COc1ccc(C(=O)NCC2(N3CCCCC3)CCCCC2)c(OC)c1OC`: “inactive”.
Consider `CC(C)(C)OC(=O)N1CCC(N(C(=O)c2ccccc2)c2ccc(F)cc2)CC1`, for which the B-score is active: -18.1.
In the case of `O=C(NCC1(N2CCCCC2)CCCCC1)c1ccc(=O)[nH]c1`, the outcome was inactive.
As for `O=C(NCC1(N2CCCCC2)CCCCC1)c1cccs1`, the result was inactive.
For the compound `O=C(OC1CN2CCC1CC2)C1c2ccccc2Oc2ccccc21` (centres undefined), the result was inactive.
In the case of `N#CC1(Nc2ccccc2)CCN(Cc2ccccc2)CC1`, the compound was classed as inactive.
Turning to `CCOC(=O)N1CCC(Nc2ccc(OC)cc2)CC1`, the outcome was inactive.
Take `O=C(NCC1(N2CCCCC2)CCCCC1)c1ccc(Cl)nc1`: the compound was called inactive.
For the compound `Cc1cc(C)cc(N(C(=O)c2ccccc2)C2CCN(C(=O)OC(C)(C)C)CC2)c1`, the B-score was active: -12.4.
Turning to `O=C(NCC1(N2CCOCC2)CCCCC1)c1cc2ccccc2o1`, the compound was classed as inactive.
Still for that read-out and setting: next, `COc1cc(OC)c(C(=O)NCC2(N(C)C)CCCCC2)cc1OC`: “inactive”; `CC(C)c1ccc(NC2CCN(C(=O)OC(C)(C)C)CC2)cc1`: “inactive”.
Still for that read-out and setting: next, `COc1ccc(CN(CCCl)CCCl)cc1Cl`: “inactive”; `CN(C)c1cccc(C(=O)NCC2(N3CCCCC3)CCCCC2)c1`: “inactive”.
As to `CCCOc1ccc(C(=O)NCC2(N(C)C)CCCCC2)cc1OC`, the outcome was inactive.
For the compound `CN1CCC(Nc2cccc(F)c2)CC1`, the compound was classed as inactive.
On the same count and under the same terms, next, `CCN1CCC(Nc2ccc(Cl)cc2)CC1`: “inactive”.
Regarding `N#CC1(Nc2ccccc2)CCN(CCc2ccccc2)CC1`, the outcome was inactive.
Same read-out and setting: next, `O=C(NCC1(N2CCCCC2)CCCCC1)c1cccc([N+](=O)[O-])c1`: “inactive”; `O=C(NCC1(N2CCCCC2)CCCCC1)c1ccc(OC(F)F)cc1`: “inactive”.
Same read-out and setting: the entry for `COc1cc(C(=O)NCC2(N3CCCCC3)CCCCC2)ccc1OC(F)F` is “inactive”; for `O=C(NCC1(N2CCOCC2)CCCCC1)c1cc(=O)[nH]c2ccccc12` it is “inactive”.
With `CN1CCN(CCOC(=O)C(O)(c2ccccc2)c2ccccc2)CC1`, the call was inactive.
On the same count and under the same terms, next, `COc1ccc(NC2CCN(C(=O)OC(C)(C)C)CC2)cc1`: “inactive”; `O=C(NCC1(N2CCCCC2)CCCCC1)c1cccc(C(F)(F)F)c1`: “inactive”.
